Experimental data: patent US4057636A, “Antihypertensive pyridylguanidine compounds” (Leo Pharmaceutical Products Ltd. A/S, priority 1974, dated 1977)

Assay: in vivo
Conditions: mouse, po

Compound: CC(C)(C)/N=C(/NC#N)Nc1cccnc1 [P 1060, N-tert-Butyl-N"-cyano-N'-3-pyridylcuanidine]
- LD50: > 1000 mg/kg
